Data: BindingDB's records for PubMed 11160626 (Japan Tobacco, 2001)

By UniProt entry, the sequences of proteins in these tests, tags left out. Where a name states a change or a piece, a line headed by the entry shows the natural chain unless it says otherwise.
UniProt P47936: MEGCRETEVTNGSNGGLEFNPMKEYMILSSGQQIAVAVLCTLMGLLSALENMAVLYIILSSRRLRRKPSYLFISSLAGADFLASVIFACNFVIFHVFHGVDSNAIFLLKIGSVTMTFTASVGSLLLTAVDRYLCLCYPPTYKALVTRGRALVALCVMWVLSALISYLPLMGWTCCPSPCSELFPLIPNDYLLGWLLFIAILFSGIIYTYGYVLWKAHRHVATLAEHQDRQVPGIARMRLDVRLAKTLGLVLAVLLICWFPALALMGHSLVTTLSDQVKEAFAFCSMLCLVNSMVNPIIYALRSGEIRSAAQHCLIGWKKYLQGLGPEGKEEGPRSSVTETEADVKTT
UniProt P21554, whole entry: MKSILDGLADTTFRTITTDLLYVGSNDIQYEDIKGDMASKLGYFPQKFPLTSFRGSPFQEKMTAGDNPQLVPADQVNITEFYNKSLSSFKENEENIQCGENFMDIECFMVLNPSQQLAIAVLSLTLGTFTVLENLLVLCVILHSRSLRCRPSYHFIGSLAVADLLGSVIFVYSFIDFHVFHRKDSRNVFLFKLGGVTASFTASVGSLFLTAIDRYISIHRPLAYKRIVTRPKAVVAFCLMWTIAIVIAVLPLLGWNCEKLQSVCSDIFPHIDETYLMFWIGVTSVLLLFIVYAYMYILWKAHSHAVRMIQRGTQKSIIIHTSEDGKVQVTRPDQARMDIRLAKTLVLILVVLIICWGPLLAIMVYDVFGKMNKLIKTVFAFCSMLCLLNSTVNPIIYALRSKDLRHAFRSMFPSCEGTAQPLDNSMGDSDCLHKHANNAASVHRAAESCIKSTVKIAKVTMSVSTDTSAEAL
UniProt P20272, whole entry: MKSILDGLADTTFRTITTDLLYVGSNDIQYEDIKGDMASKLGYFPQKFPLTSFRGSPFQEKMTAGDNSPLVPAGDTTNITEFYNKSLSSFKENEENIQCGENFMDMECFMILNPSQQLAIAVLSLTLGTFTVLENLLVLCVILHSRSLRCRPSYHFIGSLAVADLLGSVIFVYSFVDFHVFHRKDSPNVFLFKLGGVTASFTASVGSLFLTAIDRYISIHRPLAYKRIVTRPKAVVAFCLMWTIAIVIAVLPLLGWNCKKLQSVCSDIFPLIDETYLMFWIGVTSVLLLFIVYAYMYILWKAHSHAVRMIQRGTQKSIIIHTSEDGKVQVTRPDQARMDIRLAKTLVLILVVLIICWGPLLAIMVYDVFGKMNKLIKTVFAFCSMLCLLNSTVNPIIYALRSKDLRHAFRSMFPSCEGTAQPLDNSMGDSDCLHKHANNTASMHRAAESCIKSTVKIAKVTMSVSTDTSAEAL

How the values were obtained:
[1] = biological target: Cannabinoid receptor 2 (Mus musculus, UniProt P47936)
[2] = biological target: T1, Cannabinoid receptor 2 (Rattus norvegicus, UniProt Q9QZN9)
T1 sequence (Q9QZN9 whole entry): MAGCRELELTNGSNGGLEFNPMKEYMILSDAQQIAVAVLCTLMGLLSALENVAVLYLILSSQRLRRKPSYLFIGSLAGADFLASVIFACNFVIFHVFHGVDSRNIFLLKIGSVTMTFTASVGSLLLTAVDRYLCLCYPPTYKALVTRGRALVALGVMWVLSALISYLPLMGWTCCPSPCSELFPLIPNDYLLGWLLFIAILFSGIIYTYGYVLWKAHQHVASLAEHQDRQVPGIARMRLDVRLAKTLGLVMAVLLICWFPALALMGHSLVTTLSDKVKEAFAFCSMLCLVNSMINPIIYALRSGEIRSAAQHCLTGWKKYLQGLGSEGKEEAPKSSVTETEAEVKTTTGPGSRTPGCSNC

[3] = biological target: Cannabinoid receptor 1 (Homo sapiens, UniProt P21554)
[4] = biological target: Cannabinoid receptor 1 (Rattus norvegicus, UniProt P20272)

## Cc1ccc(Cn2nc(C(=O)NC3C(C)(C)C4CC[C@@]3(C)C4)cc2-c2ccc(Cl)c(C)c2)cc1 (some centres undefined) [N-(1,3,3-trimethylbicyclo(2.2.1)heptan-2-yl)-5-(4-chloro-3-methylphenyl)-1-(4-methylbenzyl)pyrazole-3-carboxamide]
[1]
  Ki: 0.04 nM
[2]
  Ki: 0.24 nM
[3]
  Ki: 50.3 nM
[4]
  Ki: 27.6 nM
